Rows were chosen to be rich in hits. Some 1.8% of all compounds tested hit in one or more screens of this group.
Cneo AK release – Cryptococcus neoformans lysis via adenylate kinase release; C. neoformans lysis, adenylate kinase release luminescence, 4 h; normalised: neutral wells 0, clomiphene wells 100; lysis activity, % at 15 µM; actives 0.2% (n = 360,000); AID 651654;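 active = mean lysis activity across replicates of at least 80%, whatever share of replicates individually reach that level; inactive = mean lysis activity below 80%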
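Assay system: C. neoformans cells. Amount: yeast cell density of 5 × 10^6 cells/mL. Technique: AK luminescence. Buffer or medium: YPD. Times: static 4 h at 37 °C with compound, 1 h detection. Dosing: single-point compound dose. Read-out: lysis from increased AK signal.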
E-sel inducer – E-selectin induction on HUVECs | P16581 | HUVEC E-selectin immunofluorescence imaging; normalized: neutral wells 0, TNF-alpha wells 100 | activation, % at 7.58 µM | actives 0.37% (n = 260,000);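 active = mean E-selectin-positive cell signal at least 10% of the positive control, reached in at least 60% of replicates, without over 20% cell loss; inconclusive = no rule given, readout overlaps actives, possibly toxicity-flagged; inactive = the rest, including those meeting only one limit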
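Assay system: HUVEC, human umbilical vein endothelial cells / Amount: 3,000 HUVEC/well / Controls: TNF-alpha positive control, DMSO neutral control / Compound dosing: single concentration / Medium: EGM-2 over gelatin coat / Evaluation: percent E-selectin-positive cells / Signal: immunofluorescence imaging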
UUG fidelity – alters start codon recognition fidelity in yeast | S. cerevisiae UUG-firefly luciferase reporter, luminescence/redox ratio | activity score, % at 18.7 µM | 350,000 compounds, 0.13% hits | AID 602363;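 active = replicate mean at a twofold rise or more, about +100% in these data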;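 note: firefly luciferase made from a UUG start codon reports start codon fidelity; reporter light over untreated wells divided by growth signal over untreated wells; some hits fall short of that in this replicate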
DENV2 CPE – DENV2-induced cell death inhibition; AID 651640; actives 1.7% (n = 350,000); CPE inhibition, % at 9.99 µM; DENV2-infected cells, cytopathic effect rescue, plate reader; in the data active = CPE inhibition above about 20%, passing the limit was not always enough; inconclusive = no clear call, values can overlap the other calls; tested in BHK-21 cells
A number is an active result; - = inactive; ? = inconclusive; . = no result given.

SMILES	Cneo AK release	E-sel inducer	UUG fidelity	DENV2 CPE
C[C@@H]1CCCCO[C@H](CN(C)C(=O)Nc2ccc(C(F)(F)F)cc2)[C@H](C)CN([C@@H](C)CO)C(=O)c2cc(NS(=O)(=O)c3cccs3)ccc2O1	-	-	-	37
C[C@@H]1CCCCO[C@H](CN(C)C(=O)Nc2ccc(F)cc2)[C@@H](C)CN([C@H](C)CO)C(=O)c2cc(NS(=O)(=O)c3cccs3)ccc2O1	-	-	-	22
C[C@@H]1CCCCO[C@@H](CN(C)C(=O)Nc2ccc(F)cc2)[C@H](C)CN([C@@H](C)CO)C(=O)c2cc(NS(=O)(=O)c3cccs3)ccc2O1	-	-	-	-
C[C@@H]1CN([C@H](C)CO)C(=O)Cc2cc(NS(=O)(=O)c3cn(C)cn3)ccc2O[C@H]1CN(C)Cc1ccc(C(=O)Nc2ccccc2N)cc1	.	-	.	-
C[C@H]1CN([C@@H](C)CO)C(=O)Cc2cc(NS(=O)(=O)c3cn(C)cn3)ccc2O[C@@H]1CN(C)Cc1ccc(C(=O)Nc2ccccc2N)cc1	-	-	-	21
C[C@@H]1CN([C@@H](C)CO)C(=O)Cc2cc(NS(=O)(=O)c3cn(C)cn3)ccc2O[C@H]1CN(C)Cc1ccc(C(=O)Nc2ccccc2N)cc1	.	-	.	107
C[C@H](CO)N1C[C@H](C)[C@H](CN(C)Cc2ccc(C(=O)Nc3ccccc3N)cc2)Oc2ccc(NS(=O)(=O)c3cn(C)cn3)cc2CC1=O	.	-	.	-
C[C@H]1CN([C@@H](C)CO)C(=O)Cc2cc(NC(=O)CCN3CCOCC3)ccc2O[C@@H]1CN(C)C(=O)Nc1ccccc1	-	-	-	-
Cc1noc(C)c1NC(=O)Nc1ccc2c(c1)C(=O)N([C@H](C)CO)C[C@@H](C)[C@H](CN(C)Cc1ccc(C(F)(F)F)cc1)OCCCC[C@H](C)O2	-	-	-	-
Cc1ccc2oc(C(=O)N(Cc3ccncc3)CC3CCCO3)c(C)c2c1 (centres undefined)	-	-	-	47
CCCc1ccc2oc(C(=O)N(Cc3ccncc3)CC3CCCO3)c(C)c2c1 (centres undefined)	-	.	-	-
Cc1ccccc1S(=O)(=O)N1C[C@@H](O)COC[C@H]2O[C@H](CC(=O)N3CCC(Cc4ccccc4)CC3)CC[C@@H]21	-	-	-	68
CN1CCN(C(=O)C[C@@H]2CC[C@H]3[C@@H](COC[C@H](O)CN3C(=O)Cc3ccccc3)O2)CC1	94	-	.	-
CN1CCN(C(=O)C[C@@H]2CC[C@@H]3[C@H](COC[C@@H](O)CN3C(=O)Cc3ccccc3)O2)CC1	-	-	.	-
O=C(C[C@@H]1CC[C@H]2[C@@H](COC[C@@H](O)CN2C(=O)c2cc(Cl)cc(Cl)c2)O1)N1CCc2ccccc2C1	-	-	-	-
O=C(C[C@H]1CC[C@@H]2[C@H](COC[C@H](O)CN2C(=O)c2ccccc2)O1)N1CCc2ccccc2C1	-	-	-	28
Oc1cccc(Nc2ccccc2)c1	-	.	-	28
Cc1ccccc1-c1ccc([C@@H]2[C@H](CO)N3CCCCN(C(=O)Nc4cccc(F)c4)C[C@@H]23)cc1	-	-	-	38
Cc1ccccc1-c1ccc([C@H]2[C@@H](CO)N3CCCCN(C(=O)Nc4cccc(F)c4)C[C@@H]23)cc1	-	-	-	-
Cc1ccccc1-c1ccc([C@H]2[C@@H](CO)N3CCCCN(C(=O)Nc4cccc(F)c4)C[C@H]23)cc1	-	.	-	45
Cc1ccc(S(=O)(=O)N(C)C[C@H]2Oc3c(NC(=O)C4CCOCC4)cccc3C(=O)N([C@H](C)CO)C[C@H]2C)cc1	-	-	-	-
C[C@H]1CN([C@@H](C)CO)C(=O)c2c(c3ccccc3n2C)-c2ccccc2CO[C@H]1CN(C)Cc1ccc2c(c1)OCCN2C	.	-	.	-
C[C@H](CO)N1C[C@H](C)[C@@H](CN(C)Cc2ccc3c(c2)OCCN3C)OCc2ccccc2-c2c(n(C)c3ccccc23)C1=O	.	-	.	37
COc1ccccc1CN(C)C[C@H]1OCc2ccccc2-c2c(n(C)c3ccccc23)C(=O)N([C@H](C)CO)C[C@H]1C	.	-	.	27
C[C@H](CO)N1C[C@H](C)[C@H](CN(C)Cc2ccccc2C(F)(F)F)OCc2ccccc2-c2c(n(C)c3ccccc23)C1=O	.	-	.	26
SMILES	Cneo AK release	E-sel inducer	UUG fidelity	DENV2 CPE
COCCNC(=O)CCC1CCN(Cc2ccc(-c3ccccc3)cc2)CC1	-	.	-	48
CN(C)CCCNc1oc(-c2ccccc2Cl)nc1S(=O)(=O)c1ccccc1	-	-	-	-
CN(C)CCCNc1oc(-c2ccc(Cl)cc2)nc1S(=O)(=O)c1ccccc1	-	-	-	39
O=C(CCN1C(=O)S/C(=C\c2ccc(Cl)cc2)C1=O)Nc1ccc(C(=O)O)cc1	-	-	-	?
CCOc1ccc(/C=C2\SC(=S)N(CCC(=O)Nc3cccc(C(=O)O)c3)C2=O)cc1	-	-	-	32
COc1ccc(/C=C2\SC(=O)N(CCCC(=O)Nc3ccc(C(=O)O)cc3)C2=O)cc1	-	-	-	97
CCCN1[C@@H]2c3ccc(C4=CCCC4)c(=O)n3C[C@H]1[C@H](CO)[C@H]2C(=O)NCCOC	-	-	.	-
O=C(Cc1cccnc1)N[C@@H]1CC[C@@H](CCn2cc(Cc3ccccc3)nn2)O[C@@H]1CO	-	-	-	-
O=C(/C=C/c1ccccc1)NCCc1ccc2c(c1)OCCO2	.	.	.	59
CC(Oc1ccccc1Cl)C(=O)N1CCOCC1 (centres undefined)	.	-	.	107
COc1ccc2c3c(n(C)c2c1)[C@H](CO)N(C(C)=O)CC31CN(C(=O)Nc2ccccc2F)C1	.	-	.	-
C[C@@H]1CN([C@H](C)CO)C(=O)c2cc(C#CCN(C)C)cnc2O[C@H]1CN(C)Cc1cccc(C(=O)O)c1	.	.	.	30
C[C@H](CO)N1C[C@H](C)[C@@H](CN(C)Cc2ccc(F)cc2)Oc2ncc(C#CCN(C)C)cc2C1=O	-	-	-	21
CC(C)CC#Cc1cnc2c(c1)C(=O)N([C@H](C)CO)C[C@H](C)[C@H](CN(C)Cc1ccccc1)O2	.	-	.	23
CO[C@@H]1CN(C)C(=O)c2cc(NC(=O)c3ccccc3)ccc2OC[C@H](C)N(C(=O)CN(C)C)C[C@@H]1C	-	-	.	-
O=C(N[C@H]1CC[C@H](CC(=O)N2CCCCC2)O[C@@H]1CO)c1ccccn1	-	-	-	28
O=C(N[C@@H]1CC[C@H](CC(=O)N2CCN(c3ccccc3)CC2)O[C@H]1CO)c1ccccc1	-	-	-	?
O=C(N[C@H]1CC[C@@H](CCNC(=O)C2CCCC2)O[C@H]1CO)c1ccccn1	-	-	-	44
O=C(N[C@@H]1CC[C@@H](CC(=O)N2CCN(c3ccccc3)CC2)O[C@H]1CO)c1ccncc1	-	-	-	31
O=C(N[C@@H]1CC[C@H](CCNC(=O)C2CCCCC2)O[C@@H]1CO)c1ccccn1	-	-	-	149
CC=Cc1ccc2n(c1=O)C[C@@H]1[C@@H](CO)[C@H](C(=O)NCCc3ccncc3)N(Cc3cncnc3)[C@H]21 (mixture of isomers)	-	-	.	-

Source: PubChem
